From ChEMBL document CHEMBL2429846, “Inhibition of monoamine oxidase by 3,4-dihydro-2(1H)-quinolinone derivatives” (Bioorg Med Chem Lett, 2013)

Sequences of proteins named here, by UniProt entry; tags and fusion partners are left off.
UniProt P27338, whole entry: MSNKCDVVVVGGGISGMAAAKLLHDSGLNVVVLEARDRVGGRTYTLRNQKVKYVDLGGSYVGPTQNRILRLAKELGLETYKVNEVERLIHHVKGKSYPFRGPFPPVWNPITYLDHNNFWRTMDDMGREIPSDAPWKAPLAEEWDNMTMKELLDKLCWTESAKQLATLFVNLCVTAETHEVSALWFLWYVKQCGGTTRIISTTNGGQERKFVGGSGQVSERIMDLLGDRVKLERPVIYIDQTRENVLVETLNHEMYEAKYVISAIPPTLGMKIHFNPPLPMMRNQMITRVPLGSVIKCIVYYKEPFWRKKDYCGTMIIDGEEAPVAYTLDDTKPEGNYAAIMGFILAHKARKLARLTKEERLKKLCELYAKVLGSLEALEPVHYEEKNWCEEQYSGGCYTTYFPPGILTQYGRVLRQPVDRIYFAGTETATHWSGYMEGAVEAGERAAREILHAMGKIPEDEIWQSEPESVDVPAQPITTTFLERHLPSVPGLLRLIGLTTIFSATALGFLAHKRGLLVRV

Experiments:
[1] = molecular target: T1, Amine oxidase [flavin-containing] B (Homo sapiens, UniProt P27338); test: Inhibition of recombinant human MAO-B assessed as inhibition of kynuramine conversion to fluorescent metabolite 4-hydroxyquinoline after 20 mins by fluorescence spectrophotometry
How it was run: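 IC50 values were read from sigmoidal concentration–inhibition curves of enzyme activity plotted against log inhibitor concentration.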

[2] = molecular target: T1, Amine oxidase [flavin-containing] B; test: Reversible competitive inhibition of recombinant human MAO-B using kynuramine as substrate assessed as formation of 4-hydroxyquinoline by Lineweaver-Burk plot analysis

Compound | IC50 [1] [nM] | Ki [2] [nM]
O=C1CCc2ccc(OCc3cccc(Cl)c3)cc2N1 | 6.2 | –
O=C1CCc2ccc(OCc3cccc(Br)c3)cc2N1 | 2.9 | 2.7
